Data published in PubChem BioAssay AID652197 (Broad Institute, 2013).
The entries are a selection whose mix differs from that of the whole data set. Calls of active or inactive are those of the source.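 How the source made its calls: active means mean replicate inhibition of at least 30%, or all replicates individually reaching that 30% level; inactive means mean below 30% and not every replicate reaching it.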

By UniProt entry, the sequences of proteins in these tests, tags left out. Where a name states a change or a piece, a line headed by the entry shows the natural chain unless it says otherwise.
UniProt Q9NZ08: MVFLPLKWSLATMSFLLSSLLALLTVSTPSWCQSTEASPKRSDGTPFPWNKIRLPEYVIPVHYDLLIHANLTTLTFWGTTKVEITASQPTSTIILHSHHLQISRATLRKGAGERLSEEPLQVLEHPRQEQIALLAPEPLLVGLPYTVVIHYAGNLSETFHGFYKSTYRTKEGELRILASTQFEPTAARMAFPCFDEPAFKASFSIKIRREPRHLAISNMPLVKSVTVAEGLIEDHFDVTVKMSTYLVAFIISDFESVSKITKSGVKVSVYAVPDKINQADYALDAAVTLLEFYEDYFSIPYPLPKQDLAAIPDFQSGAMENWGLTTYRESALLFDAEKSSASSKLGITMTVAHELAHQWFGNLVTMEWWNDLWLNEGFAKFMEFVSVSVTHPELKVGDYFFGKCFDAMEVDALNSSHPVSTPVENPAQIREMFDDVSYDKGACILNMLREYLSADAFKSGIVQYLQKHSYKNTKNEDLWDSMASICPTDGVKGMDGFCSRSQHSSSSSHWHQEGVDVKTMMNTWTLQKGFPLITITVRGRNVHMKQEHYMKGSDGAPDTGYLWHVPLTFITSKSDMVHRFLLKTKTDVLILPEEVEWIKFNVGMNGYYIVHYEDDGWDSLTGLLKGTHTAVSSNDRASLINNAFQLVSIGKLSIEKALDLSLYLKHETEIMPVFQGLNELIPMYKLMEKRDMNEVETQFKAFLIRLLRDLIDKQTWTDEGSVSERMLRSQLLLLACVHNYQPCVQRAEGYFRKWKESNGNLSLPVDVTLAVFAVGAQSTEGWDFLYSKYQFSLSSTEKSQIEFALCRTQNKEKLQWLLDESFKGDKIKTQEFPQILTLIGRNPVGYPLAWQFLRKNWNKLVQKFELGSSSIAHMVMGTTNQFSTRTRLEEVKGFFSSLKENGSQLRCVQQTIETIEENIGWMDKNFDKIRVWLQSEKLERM

Target: Endoplasmic reticulum aminopeptidase 1 (Homo sapiens) (UniProt Q9NZ08)
Test: inhibition of ERAP1 peptide trimming enzyme – biochemical, single point, plate reader, primary screen (AID 652197);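 further: 0% = neutral control wells and 100% = L-leucinethiol positive control wells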
Conditions: recombinant ERAP1, Leu-AMC fluorescence, 60 min; at 10.7 µM; active compounds read high

SMILES | inhibition
O=c1ccc2ccc(O)cc2o1 | active: 100%
